{"sequences": {"note": "The chains behind the UniProt entries cited, without tags or fusion partners. Residues count along the entry.", "UniProt Q00961, 20-1237": "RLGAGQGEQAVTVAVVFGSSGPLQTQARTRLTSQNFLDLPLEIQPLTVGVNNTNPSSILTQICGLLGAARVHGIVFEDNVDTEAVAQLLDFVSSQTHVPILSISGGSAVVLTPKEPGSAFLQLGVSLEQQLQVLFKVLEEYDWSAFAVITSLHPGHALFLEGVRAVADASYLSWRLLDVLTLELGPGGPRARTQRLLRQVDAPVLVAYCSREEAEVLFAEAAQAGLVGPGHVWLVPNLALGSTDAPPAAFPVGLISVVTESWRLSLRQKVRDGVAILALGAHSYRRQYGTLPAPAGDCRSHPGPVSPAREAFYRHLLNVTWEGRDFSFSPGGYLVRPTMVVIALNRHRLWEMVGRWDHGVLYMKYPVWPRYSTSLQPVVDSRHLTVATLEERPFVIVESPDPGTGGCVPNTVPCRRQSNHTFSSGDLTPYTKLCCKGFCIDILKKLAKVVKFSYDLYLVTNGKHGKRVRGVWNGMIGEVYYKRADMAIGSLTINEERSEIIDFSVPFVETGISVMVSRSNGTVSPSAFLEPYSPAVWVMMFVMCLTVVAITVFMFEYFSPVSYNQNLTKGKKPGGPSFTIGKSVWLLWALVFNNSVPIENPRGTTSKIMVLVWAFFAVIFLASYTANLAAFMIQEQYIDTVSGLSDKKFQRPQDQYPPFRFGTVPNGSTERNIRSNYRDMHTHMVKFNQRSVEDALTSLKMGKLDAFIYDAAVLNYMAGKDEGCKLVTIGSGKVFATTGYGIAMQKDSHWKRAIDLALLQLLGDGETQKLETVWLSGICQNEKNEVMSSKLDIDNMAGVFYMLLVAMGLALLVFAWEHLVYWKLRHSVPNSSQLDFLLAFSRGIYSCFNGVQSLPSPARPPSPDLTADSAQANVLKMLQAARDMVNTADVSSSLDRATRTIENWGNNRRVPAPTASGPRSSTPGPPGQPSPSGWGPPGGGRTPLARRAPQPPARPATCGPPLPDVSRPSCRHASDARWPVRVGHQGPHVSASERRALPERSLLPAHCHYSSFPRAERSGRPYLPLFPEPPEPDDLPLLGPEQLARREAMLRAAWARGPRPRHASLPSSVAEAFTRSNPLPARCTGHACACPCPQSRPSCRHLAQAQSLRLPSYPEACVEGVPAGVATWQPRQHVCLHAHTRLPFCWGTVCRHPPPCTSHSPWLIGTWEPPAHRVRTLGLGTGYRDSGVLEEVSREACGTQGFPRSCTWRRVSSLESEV"}, "source": "patent US9737522B2", "about": "“NMDA receptor modulators and uses related thereto” (EMORY UNIVERSITY, priority 2012, dated 2017)", "molecular_target": "recombinant rat GluN1/GluN2C receptors (NR2C) (Rattus norvegicus (Rat), UniProt P35439+Q00961)", "test": "Two-electrode voltage-clamp recordings, Xenopus laevis oocytes, NR2C", "format": "cell-based", "details": "head prints IC50; method describes EC50 of potentiator", "method": "Two-electrode voltage-clamp recordings were made from Xenopus laevis oocytes expressing recombinant rat GluN1/GluN2A, GluN1/GluN2B, GluN1/GluN2C, GluN1/GluN2D, GluA1, or GluK2 receptors following injection of 5-10 ng of cRNA synthesized according to manufacturers' protocols (Ambin, mMessage, mMachine). cDNAs used were rat GluN1-1a (GenBank accession numbers U11418 and U08261; hereafter GluN1), GluN2A (D13211), GluN2B (U11419), GluN2C (M91563), GluN2D (L31611), GluA1 (X17184), GluK2 (Z11548). The current under voltage-clamp was recorded during perfusion with recording solution containing (in mM) 90 NaCl, 1.0 KCl, 0.5 BaCl2, 0.005 EDTA, and 10 HEPES at pH 7.4 (23° C.). Glass micropipettes had resistances of 0.3-1.0 MS2 and were filled with 3.0 M KCl. The membrane potential was clamped at −40 mV during the experiment. Recordings were digitized at 10 Hz and analyzed off line. 20 mM stock solutions of test compounds in 100% DMSO were made and diluted to obtain the final concentration; final DMSO content was 0.05-0.5% (vol/vol). […] NMDA receptor responses were obtained by challenging oocytes with 100 μM glutamate plus 30 μM glycine; GluA1 and GluK2 receptors responses were recorded during application of 100 μM glutamate. We recorded the response to 5-7 concentrations of test drug co-applied with glutamate and glycine in 5 or more oocytes obtained from two different frogs. […]"}
{"smiles": "COC(=O)c1ccc(C2C(C(C)=O)=C(O)C(=O)N2CCc2c[nH]c3ccccc23)cc1", "note": "(stereo not shown)", "values": [{"measurement": "EC50 (potentiation)", "value": 24, "unit": "µM"}]}
